According to ChEMBL document CHEMBL1154647, “Synthesis, spectral characterization and biological evaluation of phosphorylated derivatives of galanthamine” (Eur J Med Chem, 2010):

Tests used:
[1] = test system: Brain; assay: Antioxidant activity in Wistar rat brain assessed as superoxide dismutase content; type: functional
[2] = test system: Brain; assay: Antioxidant activity in Wistar rat brain assessed as catalase content; type: functional
[3] = test system: Brain; assay: Antioxidant activity in Wistar rat brain assessed as lipid peroxidation; type: functional, tissue-based
[4] = test system: Brain; assay: Antioxidant activity in Wistar rat brain assessed as glutathione content; type: functional
Procedure, shortened: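 Wistar rat brain was homogenised 1:40 (w/v) in 0.1 M phosphate buffer, pH 7.4, with 1 mM EDTA. Total glutathione (GSH + GSSG) and reduced GSH were assayed spectrophotometrically from optical density, using net rate against a standard-curve slope and intercept, times a dilution factor. Homogenate protein was measured by the Lowry method.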

With `COc1ccc2c3c1O[C@H]1C[C@@H](OP(=O)(SCCN)N(CCCl)CCCl)C=C[C@@]31CCN(C)C2` (stereo partly drawn) the Activity [1] was 30.6 µg/mL, the Activity [2] was 285 µg/mL and the Activity [3] was 72.4 µg/mL. It also gave an Activity [4] of 5.02 µg/mL.
With `COc1ccc2c3c1O[C@H]1C[C@@H](OP(=O)(Oc4ccc([N+](=O)[O-])cc4)SCCN)C=C[C@@]31CCN(C)C2` (stereo partly drawn) the Activity [1] was 29.9 µg/mL, the Activity [2] was 293 µg/mL and the Activity [3] was 75.5 µg/mL. For the same molecule, the Activity [4] was 5.08 µg/mL.
